According to BindingDB's records for doi:10.1021/jm031011g (Xenova, 2004):

Legend:
[1] = molecular target: Multidrug resistance-associated protein 1 (Homo sapiens) (UniProt P33527); assay: Effective concentration to inhibit MRP1 in potentiation assay
[2] = molecular target: Multidrug resistance-associated protein 1 (Homo sapiens) (UniProt P33527); assay: as above; remark: listed apart in the source

Row | pEC50 [1] | pEC50 [2] | Structure (SMILES)
1 | 6.63 | – | O=C(Nc1cccnc1)c1c2n(c3c(N4CCN(CCc5ccc(F)c(F)c5)CC4)ncnc13)CCCC2 [4-{4-[2-(3,4-Difluoro-phenyl)-ethyl]-piperazin-1-yl}-6,7,8,9-tetrahydro-pyrimido[4,5-b]indolizine-10-carboxylic acid pyridin-3-ylamide]
2 | – | 7.00 | CCNC(=O)c1c2n(c3c(N4CCN(CCc5ccc(F)c(F)c5)CC4)ncnc13)CCCC2 [4-{4-[2-(3,4-Difluoro-phenyl)-ethyl]-piperazin-1-yl}-6,7,8,9-tetrahydro-pyrimido[4,5-b]indolizine-10-carboxylic acid ethylamide]

pEC50: −log10 of the molar value.
